Measured values reported in patent publication US6395256B1 (priority 1997, dated 2002).

Tests used:
reduced SAH hydrolase = target: T1, reduced SAH hydrolase (Bos taurus, UniProt Q3MHL4); assay: 3H-adenosine displacement using reduced SAH hydrolase; assay type: binding, bovine
T1 construct: SAH hydrolase is purified with classical chromatographical methods to homogeneity from organs e.g. from bovine kidney; from tissue; host or cells: bovine kidney
T1 sequence (Q3MHL4 2-432 limits assumed): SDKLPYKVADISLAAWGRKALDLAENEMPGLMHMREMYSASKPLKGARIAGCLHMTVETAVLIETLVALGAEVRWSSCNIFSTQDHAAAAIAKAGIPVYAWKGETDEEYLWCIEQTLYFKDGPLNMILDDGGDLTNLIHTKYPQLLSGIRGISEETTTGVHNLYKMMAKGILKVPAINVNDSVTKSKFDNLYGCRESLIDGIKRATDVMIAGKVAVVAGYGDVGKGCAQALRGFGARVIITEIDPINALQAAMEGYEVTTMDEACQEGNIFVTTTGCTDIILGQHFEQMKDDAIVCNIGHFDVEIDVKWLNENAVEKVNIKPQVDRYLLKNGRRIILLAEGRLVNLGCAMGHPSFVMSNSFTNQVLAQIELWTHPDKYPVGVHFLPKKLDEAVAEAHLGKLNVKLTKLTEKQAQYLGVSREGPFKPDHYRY
Experimental: 100 μl reduced SAH hydrolase (1 μg/300 μl)
50 μl buffer—20 mM Tris, 40 mM Hepes pH 7.0
Therefore the samples are incubated over night. The assay mixture is separated through nitrocellulose filters with a filtration equipment.

active SAH hydrolase = target: T2, active SAH hydrolase (Bos taurus, UniProt Q3MHL4); assay: 3H-adenosine displacement using active SAH hydrolase; assay type: binding, bovine
T2 construct: SAH hydrolase is purified with classical chromatographical methods to homogeneity from organs e.g. from bovine kidney; from tissue; host or cells: bovine kidney
T2 sequence (Q3MHL4 2-432 limits assumed): T1 sequence (Q3MHL4 2-432 limits assumed)
Experimental: SAH hydrolase is purified with classical chromatographical methods to homogeneity from organs e.g. from bovine kidney. Fresh bovine kidney (450 g), obtained from the local slaughterhouse were homogenized in two volumes of 50 mM potassium phosphate buffer pH 7.0, 1 mM DTT, 1 mM EDTA and 10 mM PMSF. The homogenate was centrifuged at 20000×g for 60 min. […] After centrifugation at 20000×g for 30 min the precipitate was disolved in 300-400 ml 20 mM Tris/HCl pH 7.5, 1 mM DTT and 1 mM EDTA and dialyzed against the same buffer.

Substance: diadenosine-diphosphate
- EC50 (reduced SAH hydrolase): 10 µM
- EC50 (active SAH hydrolase): 0.138 µM
